Reference: US10266537B2, “3-acetylenyl-pyrazole-pyrimidine derivative, and preparation method therefor and uses thereof” (Si Chuan University, priority 2015, dated 2019)

Sequences of proteins named here, by UniProt entry; tags and fusion partners are left off. Residues count along the entry.
UniProt P12931, 1-530 limits assumed: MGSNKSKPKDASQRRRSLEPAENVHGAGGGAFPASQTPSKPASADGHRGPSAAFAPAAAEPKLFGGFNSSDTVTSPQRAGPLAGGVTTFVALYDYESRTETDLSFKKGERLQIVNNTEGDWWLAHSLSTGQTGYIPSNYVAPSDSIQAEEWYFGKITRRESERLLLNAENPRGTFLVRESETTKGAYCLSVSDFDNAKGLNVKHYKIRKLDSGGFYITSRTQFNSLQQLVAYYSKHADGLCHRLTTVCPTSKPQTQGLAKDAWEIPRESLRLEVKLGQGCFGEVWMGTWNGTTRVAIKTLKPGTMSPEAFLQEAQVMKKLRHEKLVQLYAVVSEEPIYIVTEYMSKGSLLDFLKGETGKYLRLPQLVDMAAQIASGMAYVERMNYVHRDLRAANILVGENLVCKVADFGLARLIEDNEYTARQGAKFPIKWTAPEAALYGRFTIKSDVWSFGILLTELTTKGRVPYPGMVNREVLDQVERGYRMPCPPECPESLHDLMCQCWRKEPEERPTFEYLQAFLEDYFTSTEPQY

Experiments:
c-Src(1-530) = c-Src(1-530) (Homo sapiens (Human), UniProt P12931); assay: Kinase inhibition assay (KinaseProfiler, 33P-ATP); conditions: ATP at Km
MDA-MB-231 = assay: Cell proliferation inhibition assay (MTT); assay type: cell-based, human; conditions: read-out: Proliferative inhibitory activity MDA-MB-231 (IC50 class), 72 hours
MDA-MB-435 = assay: Cell proliferation inhibition assay (MTT); assay type: cell-based, human; conditions: read-out: Proliferative inhibitory activity MDA-MB-435 (IC50 class), 72 hours

IC50 (c-Src(1-530))	IC50 (MDA-MB-231)	IC50 (MDA-MB-435)	Structure (SMILES)
2 nM	< 100 nM	< 100 nM	Cc1ccc(C(=O)Nc2ccc(CN3CCN(C)CC3)c(C(F)(F)F)c2)cc1C#Cc1nn(C(C)C)c2ncnc(N)c12
20 nM	100 to 500 nM	> 1000 nM	Cc1ccc(NC(=O)Nc2cccc(C(F)(F)F)c2)cc1C#Cc1nn(C(C)C)c2ncnc(N)c12
